Test results: ChEMBL document CHEMBL4261630

Chains of the proteins cited; added tags and fusions are not shown. Lines headed by an entry give the natural chain unless they say otherwise; changes in a name come on top.
UniProt P62575: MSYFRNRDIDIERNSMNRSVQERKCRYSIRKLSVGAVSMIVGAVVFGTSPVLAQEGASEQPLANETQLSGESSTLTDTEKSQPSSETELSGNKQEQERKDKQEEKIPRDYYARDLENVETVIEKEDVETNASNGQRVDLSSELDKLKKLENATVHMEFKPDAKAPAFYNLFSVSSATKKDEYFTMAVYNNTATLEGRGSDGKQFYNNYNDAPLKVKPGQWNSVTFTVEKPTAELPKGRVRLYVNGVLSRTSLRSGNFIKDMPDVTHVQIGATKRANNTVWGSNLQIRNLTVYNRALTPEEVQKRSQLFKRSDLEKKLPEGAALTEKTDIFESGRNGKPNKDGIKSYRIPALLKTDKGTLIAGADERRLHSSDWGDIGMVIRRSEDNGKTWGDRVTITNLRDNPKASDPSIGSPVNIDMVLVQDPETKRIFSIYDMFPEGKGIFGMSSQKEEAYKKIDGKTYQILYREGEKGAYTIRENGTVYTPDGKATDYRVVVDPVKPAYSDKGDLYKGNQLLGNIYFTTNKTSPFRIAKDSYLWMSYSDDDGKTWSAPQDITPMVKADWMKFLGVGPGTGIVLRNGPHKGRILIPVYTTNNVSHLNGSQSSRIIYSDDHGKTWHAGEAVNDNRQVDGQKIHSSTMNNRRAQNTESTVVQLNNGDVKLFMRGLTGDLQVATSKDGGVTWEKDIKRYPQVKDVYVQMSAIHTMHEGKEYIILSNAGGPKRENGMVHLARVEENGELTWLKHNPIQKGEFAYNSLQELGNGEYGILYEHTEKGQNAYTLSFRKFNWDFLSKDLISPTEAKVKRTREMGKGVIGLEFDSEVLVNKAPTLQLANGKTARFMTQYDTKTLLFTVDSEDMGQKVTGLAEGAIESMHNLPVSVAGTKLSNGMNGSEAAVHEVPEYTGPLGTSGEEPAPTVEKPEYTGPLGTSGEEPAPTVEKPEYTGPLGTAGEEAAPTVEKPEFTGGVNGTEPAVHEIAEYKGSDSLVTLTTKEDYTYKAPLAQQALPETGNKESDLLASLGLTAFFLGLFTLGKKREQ

Legend:
[1] = biological target: Sialidase A (Streptococcus pneumoniae, UniProt P62575); assay: Inhibition of Streptococcus pneumoniae NanA using Neu5Acalpha2-3GalbetapNP as substrate after 30 mins by colorimetric assay
[2] = system: Bifidobacterium longum subsp. infantis; details: ATCC 15697, at 1 mM
[3] = system: Bifidobacterium longum subsp. infantis; details: ATCC 15697, at 0.1 mM

Structure (SMILES): CC(=O)N[C@H]1[C@H]([C@H](O)[C@H](O)CO)OC(C(=O)O)=C[C@@H]1O [NEU5AC2EN]
- IC50 [1]: 10 µM
- inhibition [2]: 91.1%
- inhibition [3]: 66.7%
